The values that follow are results of earlier work, collected in paper PMC9585589 (2022).

What is called Ki is a dissociation constant, usually derived from enzyme kinetics or from competition with a known ligand.

In the data set the target is human CB1. To be noted: CB1 antagonists/inverse agonists, Table S9; ref SI (20)-(38), one per compound; cited from earlier work.

Turning to `CCNC1(C(N)=O)CCN(c2ncnc3c2nc(-c2ccccc2Cl)n3-c2ccc(Cl)cc2)CC1` [Otenabant], the inhibition constant Ki was 0.7 nM. For the molecule AM-251, the Ki was 7.49 nM.
